How the values were obtained:
[1] = target: BanLec, recombinant wild type (rBanLec, codon-optimized cDNA from gi71042661, C-terminal 6×His tag) (Musa acuminata, UniProt O22321); experiment: Glycocluster inhibition of lectin binding to surface-immobilized mannose neoglycoprotein; set-up: species or system banana; conditions: read-out: IC50 of WT; 0.5 μg neoglycoprotein coating, 0.5 μg/ml labeled WT lectin; concentrations normalized to mannose (cpds 1-8) and maltose (cpds 9-11)
[2] = target: BanLec variant H84T (recombinant, 6×His tag) (Musa acuminata, UniProt O22321, H84T); conditions: read-out: IC50 of H84T; 0.5 μg neoglycoprotein coating, 1 μg/ml labeled mutant lectin; concentrations normalized to mannose (cpds 1-8) and maltose (cpds 9-11)
[3] = tested on: BanLec variant H84T (recombinant, 6×His tag); conditions: IC50 of WT compared with IC50 of H84T

Chains of the proteins cited; added tags and fusions are not shown. Residues count along the entry.
UniProt O22321, 1-141: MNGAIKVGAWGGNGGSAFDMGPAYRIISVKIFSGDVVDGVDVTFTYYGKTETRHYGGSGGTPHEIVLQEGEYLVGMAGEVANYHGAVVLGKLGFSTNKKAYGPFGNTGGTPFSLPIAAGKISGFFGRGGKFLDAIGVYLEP
UniProt O22321, 1-141 H84T: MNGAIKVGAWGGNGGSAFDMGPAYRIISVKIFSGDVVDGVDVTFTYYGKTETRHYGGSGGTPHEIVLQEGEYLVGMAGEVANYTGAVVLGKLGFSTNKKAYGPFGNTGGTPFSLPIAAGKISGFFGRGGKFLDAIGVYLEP

O=C(N[C@@H]1O[C@H](CO[C@H]2O[C@H](CO)[C@@H](O)[C@H](O)[C@@H]2O)[C@@H](O)[C@H](O)[C@H]1O)c1ccc(C(=O)N[C@@H]2O[C@H](CO[C@H]3O[C@H](CO)[C@@H](O)[C@H](O)[C@@H]3O)[C@@H](O)[C@H](O)[C@H]2O)cc1
IC50 [1]: 600 µM
IC50 [2]: 100 µM
Fold Change (IC50, WT vs H84T) [3]: 6
